We go through 50 compounds from PubChem BioAssay AID651560 (Sanford-Burnham Center for Chemical Genomics, 2012).

Amino acid sequences for entries named in this document (tags omitted).
UniProt P24666, whole entry: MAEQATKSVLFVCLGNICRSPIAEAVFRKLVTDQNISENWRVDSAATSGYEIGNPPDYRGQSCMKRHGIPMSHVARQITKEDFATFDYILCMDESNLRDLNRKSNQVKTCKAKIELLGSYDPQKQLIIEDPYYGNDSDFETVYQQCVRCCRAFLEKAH

The list shows a part of the results, in another mix than the full data. Active and inactive are the calls of the source.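 Rule for the calls: active = compounds that cut the enzyme signal by at least half of the control window in the single-dose screen; inactive = the rest.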

This assay has as its target Low molecular weight phosphotyrosine protein phosphatase (Homo sapiens) (UniProt P24666). As to the kind of experiment: inhibition of human LMPTP-A enzyme – biochemical, fluorescence intensity, uHTS, primary screen (AID 651560).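 Note: plate controls were DMSO wells with enzyme plus substrate for no effect and substrate without enzyme for full effect.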 The note with it: recombinant LMPTP-A, OMFP fluorogenic substrate, at 20 µM, active compounds read high. In a few lines:
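Test system: LMPTP-A phosphatase enzyme. Amount: LMPTP-A at 0.625 nM final in the reaction. Reagent: OMFP substrate, 400 µM final. Times: 50 min at room temperature. Signal: endpoint fluorescence intensity from OMFP dephosphorylation. Read-out basis: % inhibition. Benchmarks: no-enzyme and uninhibited controls.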
The term inhibition denotes the drop in the measured response relative to a control, in per cent. For the compound `CP(=O)(Oc1ccccc1)N1CCOC1=O` (stereo not given), the inhibition is inactive: -1.18%.

As to `CCc1ccc(OP(C)(=O)Nc2cccnc2)cc1` (stereo not given), the inhibition is inactive: -0.238%.

Take `COc1ccccc1OP(C)(=O)Nc1c(C)n(C)n(-c2ccccc2)c1=O` (stereo not given): the inhibition is inactive: -1.62%.

For `O=C(OCCCN1CCCC1)C(O)(c1ccccc1)C1CCCCC1` (stereo not given), the inhibition was inactive: -3.21%.

In the case of `CCOP(C)(=S)SCC(=O)NC(C)C(=O)O` (stereo not given), the inhibition was inactive: -2.31%.

In the case of `CCOC(=O)c1ccc(NP(C)(=O)Oc2ccc(OC)cc2)cc1` (stereo not given), the inhibition is inactive: -0.113%.

`O=[N+]([O-])c1cc([N+](=O)[O-])c(O)c([N+](=O)[O-])c1.c1ccc(Oc2ccncc2)cc1`: the inhibition is inactive: -0.595%.

Turning to `CP(=O)(Nc1ccccn1)Oc1ccc(Cl)cc1` (stereo not given), the inhibition was inactive: -1.08%.

For `Cc1ccc(Nc2c([N+](=O)[O-])cc([N+](=O)[O-])cc2[N+](=O)[O-])cc1`, the inhibition is inactive: 1.12%.

Consider `Cc1cccc(C)c1OP(C)(=O)Nc1ccc(SC(F)(F)F)cc1` (stereo not given), for which the inhibition was inactive: 1.06%.

Consider `CP(=O)(Nc1ccc(SC(F)(F)F)cc1)Oc1ccc(Cl)cc1` (stereo not given), for which the inhibition was inactive: 4.93%.

`CP(=O)(Oc1ccccc1)OC(c1ccccc1)C(F)(F)F` (stereo not given): the inhibition was inactive: -1.09%.

On to `CP(=O)(NC(=O)Nc1ccccc1)Oc1ccccc1` (stereo not given), for which the inhibition was inactive: -2.69%.

Turning to `CCc1ccc(OP(C)(=O)N2CCN(c3ccc([N+](=O)[O-])cc3)CC2)cc1` (stereo not given), the inhibition is inactive: 3.6%.

Turning to `Cc1cc(C)cc(OP(C)(=O)Nc2ccc(SC(F)(F)F)cc2)c1` (stereo not given), the inhibition is inactive: 1.64%.

For the compound `CP(=S)(Nn1cnnc1)Oc1ccccc1` (stereo not given), the inhibition is inactive: -0.365%.

As to `COc1ccccc1OP(C)(=O)Nc1ccccc1` (stereo not given), the inhibition is inactive: -0.785%.

As to `CP(=O)(Nc1ccccc1Br)Oc1ccccc1` (stereo not given), the inhibition is inactive: 0.0432%.

In the case of `CCOC(=O)c1ccc(NP(C)(=O)Oc2ccccc2)cc1` (stereo not given), the inhibition was inactive: -0.506%.

Consider `COc1ccccc1OP(C)(=O)Nc1ccc(C)cc1` (stereo not given), for which the inhibition was inactive: -0.202%.

Take `Cc1ccc(NP(C)(=O)Oc2ccccc2)c(C)c1` (stereo not given): the inhibition was inactive: -1.1%.

In the case of `COc1ccccc1OP(C)(=O)Nc1cc(Cl)ccc1C` (stereo not given), the inhibition is inactive: 1.73%.

As to `COc1ccc(OP(C)(=O)Nc2cccc(F)c2)cc1` (stereo not given), the inhibition is inactive: -1.25%.

With `Cc1cc(C)cc(OP(C)(N)=O)c1` (stereo not given), the inhibition was inactive: -0.609%.

Regarding `O=[N+]([O-])c1cc([N+](=O)[O-])c(Nc2cccnc2)c([N+](=O)[O-])c1`, the inhibition is inactive: -1.11%.

Turning to `CC(C)(C)c1ccc(OP(C)(=O)Nc2ccc(SC(F)(F)F)cc2)cc1` (stereo not given), the inhibition is inactive: 2.2%.

Turning to `Cc1cccc(C)c1OP(C)(N)=O` (stereo not given), the inhibition is inactive: -0.189%.

`O=[N+]([O-])c1ccc2c(c1)C=Nc1ccccc1O2`: the inhibition was inactive: 1.06%.

Take `COc1ccccc1-c1ccccn1.O=[N+]([O-])c1cc([N+](=O)[O-])c(O)c([N+](=O)[O-])c1`: the inhibition is inactive: -0.182%.

Turning to `CCN(CC)CCCOC(=O)C(O)(c1ccccc1)c1ccccc1`, the inhibition is inactive: -1.4%.

Regarding `Cc1cc(C)cc(OP(C)(=O)Nc2ccccn2)c1` (stereo not given), the inhibition was inactive: -0.429%.

On to `CP(=O)(Nc1cccc(Br)c1)Oc1ccccc1` (stereo not given), for which the inhibition was inactive: 0.164%.

With `Cc1ccc(C)c(NP(C)(=O)Oc2ccccc2)c1` (stereo not given), the inhibition is inactive: 0.164%.

On to `COc1ccccc1OP(C)(=O)Nc1cccc(Br)c1` (stereo not given), for which the inhibition was inactive: -0.833%.

Regarding `Cc1cc(C)cc(OP(C)(=O)Nc2ccc(C)cc2C)c1` (stereo not given), the inhibition was inactive: -0.329%.

As to `CCOC(=O)c1ccc(NP(C)(=O)Oc2cc(C)cc(C)c2)cc1` (stereo not given), the inhibition was inactive: -0.208%.

Consider `CC1=NCCc2c1[nH]c1ccccc21.O=[N+]([O-])c1cc([N+](=O)[O-])c(O)c([N+](=O)[O-])c1`, for which the inhibition was inactive: 0.341%.

On to `O=C(O)c1cccc(Nc2c([N+](=O)[O-])cc([N+](=O)[O-])cc2[N+](=O)[O-])c1`, for which the inhibition is inactive: -0.769%.

Consider `COc1ccccc1OP(C)(=O)Nc1c(C)cccc1C` (stereo not given), for which the inhibition is inactive: -2.78%.

On to `CN1CCCCC1COC(=O)C1(O)c2ccccc2CCc2ccccc21` (stereo not given), for which the inhibition was inactive: -0.327%.

In the case of `CCCOc1ccc(NP(C)(=O)Oc2ccc(Cl)cc2)cc1` (stereo not given), the inhibition was inactive: -0.509%.

`CP(=O)(Nc1ccc(SC(F)(F)F)cc1)Oc1ccccc1` (stereo not given): the inhibition is inactive: 0.794%.

As for `COc1ccc(-c2ccccn2)cc1.O=[N+]([O-])c1cc([N+](=O)[O-])c(O)c([N+](=O)[O-])c1`, the inhibition was inactive: -1.8%.

Turning to `CC1=C2N=C(C=C3N=C(C(C)=C4[N-][C@@](C)([C@@H]5N=C1[C@](C)(CCC(=O)NC[C@@H](C)OP(=O)([O-])O[C@H]1[C@@H](O)[C@@H](n6cnc7cc(C)c(C)cc76)O[C@@H]1CO)[C@H]5CC(N)=O)[C@@](C)(CC(N)=O)[C@@H]4CCC(N)=O)[C@@](C)(CC(N)=O)[C@@H]3CCC(N)=O)C(C)(C)[C@@H]2CCC(N)=O.[C-]#N.[Co+3]`, the inhibition was inactive: 17.8%.

Turning to `O=[N+]([O-])c1cc([N+](=O)[O-])c(Nc2nnnn2CCO)c([N+](=O)[O-])c1`, the inhibition was inactive: 0.848%.

Consider `CCOC(=O)C(CC)C1=NC(C)(C)Cc2ccccc21.O=[N+]([O-])c1cc([N+](=O)[O-])c(O)c([N+](=O)[O-])c1` (stereo not given), for which the inhibition was inactive: 1.23%.

On to `O=[N+]([O-])c1cc([N+](=O)[O-])c(-c2cnn(-c3ccccc3)c2)c([N+](=O)[O-])c1`, for which the inhibition is inactive: 1.85%.

As for `Cc1nc2ccc3ccccc3c2s1.O=[N+]([O-])c1cc([N+](=O)[O-])c(O)c([N+](=O)[O-])c1`, the inhibition is inactive: 1.3%.

With `O=[N+]([O-])c1cc([N+](=O)[O-])c(-n2nnc3ccccc32)c([N+](=O)[O-])c1`, the inhibition is inactive: -0.455%.

With `CN(Cc1cccnc1)C(=O)COc1ccc(Cl)c(Cl)c1.O=[N+]([O-])c1cc([N+](=O)[O-])c(O)c([N+](=O)[O-])c1`, the inhibition is inactive: -2.4%.
